Measured values as given in PubChem BioAssay AID693 (University of Pittsburgh Molecular Library Screening Center, 2007).
Only a part is listed here, and it is no random draw. Calls of active or inactive are those of the source. No stated cut-off is given here; in the data, active means inhibition above about 34% (passing the limit was not always enough); inactive means the rest.

Protein sequences, listed by entry. Tags and fused reporters are not part of them.
UniProt P53350, whole entry, looked up: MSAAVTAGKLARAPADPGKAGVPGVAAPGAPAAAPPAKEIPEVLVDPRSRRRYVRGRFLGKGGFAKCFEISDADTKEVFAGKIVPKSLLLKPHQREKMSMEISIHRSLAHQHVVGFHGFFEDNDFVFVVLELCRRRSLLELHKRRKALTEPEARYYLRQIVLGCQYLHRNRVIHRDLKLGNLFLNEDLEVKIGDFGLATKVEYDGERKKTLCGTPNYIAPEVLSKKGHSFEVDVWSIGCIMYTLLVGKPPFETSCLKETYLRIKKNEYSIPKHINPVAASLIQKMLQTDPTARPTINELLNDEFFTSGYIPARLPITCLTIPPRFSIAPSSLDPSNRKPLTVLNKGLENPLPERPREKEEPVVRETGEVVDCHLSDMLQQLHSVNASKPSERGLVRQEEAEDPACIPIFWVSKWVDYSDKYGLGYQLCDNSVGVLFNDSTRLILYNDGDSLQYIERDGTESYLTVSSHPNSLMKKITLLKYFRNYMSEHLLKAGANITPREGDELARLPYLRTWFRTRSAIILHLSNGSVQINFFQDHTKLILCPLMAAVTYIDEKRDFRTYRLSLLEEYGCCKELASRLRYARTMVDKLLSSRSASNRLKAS

target: Serine/threonine-protein kinase PLK1 (Homo sapiens) (UniProt P53350); experiment: Plk1 polo box domain binding inhibitors, primary screen, biochemical, fluorescence polarization (AID 693); conditions: Plk1 PBD phosphopeptide binding, active compounds read high,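 tested at about 20 µM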

| SMILES | inhibition |
| --- | --- |
| CC(=O)N1C2C3N(C(C)=O)C1C1N(C(C)=O)C(C(N1C(C)=O)N3C(C)=O)N2C(C)=O | inactive: 2.66% |
| O=[N+]([O-])c1cccc2n[nH]nc12 | inactive: -8.71% |
| CCc1nc2c(n1)c1c(non1O)c1c2no[n+]1[O-] | inactive: 27.1% |
| CC1CCN(C(=O)Oc2c(Cl)cc(Cl)c3cccnc23)CC1 | inactive: 14.8% |
| CCOP(=O)(Nc1ccccc1)OCC | inactive: 13.6% |
| CN1CCCC(OC(=O)C(c2ccccc2)c2ccccc2)C1 (stereo not drawn) | inactive: 8.39% |
| CC(C)CC(=O)NC(Sc1ccc(Cl)cc1)C(Cl)(Cl)Cl (stereo not drawn) | inactive: -2.08% |
| Cc1c2non([O-])c-2c(C)[n+](=O)[n+]1[O-] | inactive: 1.32% |
| Oc1ccccc1CNc1ccccn1 | inactive: -20.8% |
| O=P1(Nc2nc3ccc(Cl)cc3s2)COc2ccccc2O1 (stereo not drawn) | inactive: 6.58% |
| CCOC(=O)NC(Sc1ccccc1)C(Cl)(Cl)Cl (stereo not drawn) | inactive: 6.5% |
| COC(=O)c1cc2c(s1)N=C(c1ccccc1)N(C)P2(=O)N1CCOCC1 (stereo not drawn) | inactive: -24.6% |
| CCC(=O)N1C2C3N(C(=O)CC)C1C1N(C(=O)CC)C(C(N1C(=O)CC)N3C(=O)CC)N2C(=O)CC | inactive: -18.9% |
| O=C(OC1CN2CCC1CC2)c1cccc(Cl)c1 (stereo not drawn) | inactive: 27.5% |
| c1nnnn1CCn1cnnn1 | inactive: 10.5% |
| O=P(Nc1nccs1)(c1ccccc1)c1ccccc1 | inactive: -5.69% |
| Clc1n[nH]nc1-c1nn[nH][15n]1 | inactive: -14.1% |

| SMILES | inhibition |
| --- | --- |
| O=P1(Nc2ccccn2)COc2ccccc2OC1 | inactive: -9.5% |
| CC1(CBr)Cn2c(nc3ccccc3c2=O)S1 (stereo not drawn) | inactive: 16.5% |
| Cc1nn(-c2ccccc2)c2c1P(=O)(N1CCOCC1)N(C)C(c1ccccc1)=N2 (stereo not drawn) | inactive: 7.13% |
| Cc1ccc(OCC(=O)OC2CN3CCC2CC3)cc1 (stereo not drawn) | inactive: -6.02% |
| O=P1(Nc2ccc(Br)cn2)COc2ccccc2OC1 | inactive: -22.5% |
| O=P1(Nc2ncccn2)COc2ccccc2OC1 | inactive: -29% |
| CCOP1(=S)c2c(C)nn(CCC#N)c2N=C(c2ccccc2F)N1C (stereo not drawn) | inactive: -16.2% |
| O=[N+]([O-])c1ccc2c(c1)nnn2O | inactive: 13.2% |
| CCOP1(=S)c2c(C)nn(CCC#N)c2N=C(c2ccc(F)cc2)N1C (stereo not drawn) | inactive: -22.2% |
| Cc1cccc(OCC(=O)OC2CN3CCC2CC3)c1 (stereo not drawn) | inactive: 0.41% |
| O=C(OC1CN2CCC1CC2)C12CC3CC(CC(C3)C1)C2 (stereo not drawn) | inactive: -4.07% |
| CCN(CC)C(=S)SC(NC=O)C(Cl)(Cl)Cl (stereo not drawn) | inactive: 3.08% |
| ClCCSc1nnc(-c2cccnc2)o1 | inactive: 34.3% |
| O=C(COc1ccccc1)OC1CN2CCC1CC2 (stereo not drawn) | inactive: -8.11% |
| COP1(=S)c2c(C)nn(CCC#N)c2N=C(c2ccc(F)cc2)N1C (stereo not drawn) | inactive: -18% |
| CCC(C)N(CC(C)C)C(=S)SC(NC(C)=O)C(Cl)(Cl)Cl (stereo not drawn) | inactive: -16.4% |
